Test results published in patent US8598154B2 (Corcept Therapeutics, Inc., priority 2010, dated 2013).

Assays:
[1] = biological target: T1, Human Recombinant Glucocorticoid Receptor (Homo sapiens, UniProt P04150); experiment: Glucocorticoid receptor binding displacement assay with 3H-dexamethasone; conditions: displacement of 2.5 nM 3H-dexamethasone; Ki from IC50 by Cheng-Prusoff; read-out: GR Binding Ki
T1 construct: This GR was a full-length steroid hormone receptor likely to be associated with heat-shock and other endogenous proteins; host or cells: baculovirus-infected insect cells
T1 sequence (P04150 1-777): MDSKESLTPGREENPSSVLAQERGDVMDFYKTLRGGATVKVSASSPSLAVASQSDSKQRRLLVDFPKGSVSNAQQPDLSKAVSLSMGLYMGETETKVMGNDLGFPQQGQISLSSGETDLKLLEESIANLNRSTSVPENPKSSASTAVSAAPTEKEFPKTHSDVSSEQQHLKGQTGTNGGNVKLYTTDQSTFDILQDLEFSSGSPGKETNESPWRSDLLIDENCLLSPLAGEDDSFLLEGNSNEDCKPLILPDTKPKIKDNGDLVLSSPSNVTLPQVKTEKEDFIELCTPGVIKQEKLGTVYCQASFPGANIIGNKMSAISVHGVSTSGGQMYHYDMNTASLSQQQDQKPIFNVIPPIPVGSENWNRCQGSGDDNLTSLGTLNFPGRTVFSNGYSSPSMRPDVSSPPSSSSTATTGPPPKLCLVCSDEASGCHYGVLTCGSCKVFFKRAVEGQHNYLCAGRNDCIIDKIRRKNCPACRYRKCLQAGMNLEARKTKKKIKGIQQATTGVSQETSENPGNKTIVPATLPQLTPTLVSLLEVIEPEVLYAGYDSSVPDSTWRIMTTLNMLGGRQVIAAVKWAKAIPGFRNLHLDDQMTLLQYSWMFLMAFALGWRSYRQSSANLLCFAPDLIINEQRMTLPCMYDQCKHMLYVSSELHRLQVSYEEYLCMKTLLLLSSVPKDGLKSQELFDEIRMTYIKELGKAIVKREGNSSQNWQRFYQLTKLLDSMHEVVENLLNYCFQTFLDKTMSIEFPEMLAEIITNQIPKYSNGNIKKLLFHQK
Method: Binding protocol: Compounds were tested in a binding displacement assay using human recombinant glucocorticoid receptor with ^3H-dexamethasone as the ligand. The source of the receptor was recombinant baculovirus-infected insect cells. This GR was a full-length steroid hormone receptor likely to be associated with heat-shock and other endogenous proteins.
For the Primary Screen, test compounds were tested at 1 μM in duplicate. These compounds were diluted from 10 mM stock in 100% DMSO. After dilution to 100 μM, 5 μl were added to 245 μl assay buffer to obtained 2 μM compound and 2% DMSO.
For the IC50 determinations, test compounds were tested at 6 concentrations in duplicate (concentration range depends on % inhibition binding that was obtained in the Primary Screen). Test compounds were diluted from 10 mM stock in 100% DMSO. The tested solutions were prepared at 2× final assay concentration in 2% DMSO/assay buffer.
All reagents and the assay plate were kept on ice during the addition of reagents. […]
After 2.5 hrs incubation, unbound counts were removed with dextran coated charcoal (DCC) as follows: 25 μl of DCC solution (10% DCC in assay buffer) was added to all wells and mixed (total volume 225 μl). […] The plate was vigorously shaken for approx. 10 minutes and counted on Topcount. […]

[2] = biological target: T2, glucocorticoid receptors (GR) in SW1353/MMTV-5 cells (Homo sapiens, UniProt P04150); experiment: GR functional assay using SW1353/MMTV-5 cells (MMTV-luciferase reporter); format: cell-based; conditions: inhibition of luciferase expression induced by 50 nM dexamethasone, 24 hrs
T2 construct: contains endogenous glucocorticoid receptors; endogenous in cells; host or cells: SW1353/MMTV-5 (human chondrosarcoma, stably transfected with the pMAMneo-Luc reporter only)
T2 sequence (P04150 1-777): T1 sequence (P04150 1-777)
Method: SW1353/MMTV-5 is an adherent human chondrosarcoma cell line that contains endogenous glucocorticoid receptors. It was transfected with a plasmid (pMAMneo-Luc) encoding firefly luciferase located behind a glucocorticoid-responsive element (GRE) derived from a viral promoter (long terminal repeat of mouse mammary tumor virus). A stable cell line SW1353/MMTV-5 was selected with geneticin, which was required to maintain this plasmid.
SW1353/MMTV-5 cells were distributed in 96-well plates and incubated in medium (without geneticin) for 24 hrs (in the absence of CO2).

Substance: (R)-6-(6-Azetidin-1-yl-pyridine-3-sulfonyl)-1-(4-fluorophenyl)-4a-(oxazol-2-ylmethoxymethyl)-4,4a,5,6,7,8-hexahydro-1H-1,2,6-triazacyclopenta[b]naphthalene [Example 16]
- Ki [1]: > 0.001 µM
- Ki [2]: 0.01 to 0.05 µM
